Source: patent publication US20200129597A1, “MODULATION OF FACTOR Xa INHIBITOR-MEDIATED BLOOD LOSS BY PARTIAL AND TRANSIENT ADMINISTRATION OF ANTIDOTE” (Portola Pharmaceuticals, Inc., priority 2012, published 2020)

Amino acid sequences for entries named in this document (tags omitted). Residues count along the entry.
UniProt P00742, 41-179 limits assumed: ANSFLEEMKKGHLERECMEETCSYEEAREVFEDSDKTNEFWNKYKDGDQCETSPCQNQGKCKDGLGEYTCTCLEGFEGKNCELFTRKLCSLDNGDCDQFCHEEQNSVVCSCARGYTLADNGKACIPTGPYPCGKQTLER
UniProt P00742, 235-488 limits assumed: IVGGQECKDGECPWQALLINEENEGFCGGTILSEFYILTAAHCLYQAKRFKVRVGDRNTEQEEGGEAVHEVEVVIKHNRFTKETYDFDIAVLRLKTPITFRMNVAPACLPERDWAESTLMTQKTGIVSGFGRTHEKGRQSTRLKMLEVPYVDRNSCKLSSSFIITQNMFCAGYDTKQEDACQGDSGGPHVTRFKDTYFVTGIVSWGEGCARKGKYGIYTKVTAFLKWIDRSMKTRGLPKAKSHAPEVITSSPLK

Molecular target: T1, prothrombinase complex (Homo sapiens, UniProt P00742)
T1 construct: from tissue; host or cells: pooled human plasma
Assay: Tissue factor-initiated thrombin generation assay in human plasma
Type: biochemical
Settings: human plasma; read-out: IC50, inhibition of prothrombinase activity (thrombin generation)
Protocol: The lines represent the best fittings; Kd and Ki values are listed. mOD min^−1=miliOptical Density per minute. […] Grey bar: Control plasma alone (PPP), Filled bar: rivaroxaban or rivaroxaban+r-antidote, Open bar: Control plasma+r-antidote. […] Thrombin generation was initiated by addition of Ca^2+ and tissue factor (TF). Cleavage of thrombin specific substrate Z-GGR-AMC (RFU=Relative Fluorescence Units) was measured at 37° C. for 10 min.
Anesthetized rats were administered enoxaparin (4.5 mg/kg) or vehicle by I.V. bolus injection followed by tail transection (2 mm from tip) 5 minutes later. […] The tip of the tail was placed in physiologic saline at 37° C. and blood collected for an additional 45 minutes after tail transection. Blood was lysed by diluting in water and freezing at −80° C. overnight. […] Anti-fXa activity of enoxaparin was measured using a modified chromogenic LMW heparin kit. Tissue factor (TF)-initiated thrombin generation was carried out in human plasma using a fluorogenic thrombin substrate by measurement of change of relative fluorescence unit (RFU) for 10 min following initiation of the reaction.
Innovin was used as the source of TF to initiate the generation of thrombin. The reaction mixture (final volume=100 μL) contained 15 mM Ca^2, 100 μM Z-GGR-AMC, and 0.1 nM TF. […] Tris-buffered saline (20 mM Tris, 150 mM NaCl, pH=7.4) was used to adjust the final volume of the reaction mixture.

IC50: 26 nM
Substance: EGR-Xa: an active site inhibited full length human fXa (human plasma derived) [reference compound]
